Tested on: VSVΔ51 in 786-0 cells
Assay: Viral sensitizer activity: VSVΔ51-FLuc output (VEU) by luciferase reporter assay
Format: cell-based, human
Conditions: at the PFC dose, NE = did not detectably increase viral output

O=C1OC(c2ccccc2)C(NCc2ccccc2)=C1Cl (centres unmarked) [Compound 3]
Normalized PFC (Peak Fold Change in Viral Expression Unit normalized to VSe1) (listed as compound 3): loss of viral enhancement activity

O=C1OCC(Cl)=C1Cl [Compound 5, 3,4-Dichloro-5H-furan-2-one]
Normalized PFC (Peak Fold Change in Viral Expression Unit normalized to VSe1) (listed as compound 5): active

O=C1NC(O)C(Cl)=C1Cl (centres unmarked) [Compound 9]
Normalized PFC (Peak Fold Change in Viral Expression Unit normalized to VSe1) (listed as compound 9): enhanced viral expression

O=C1C(Cl)=C(Cl)C(O)N1CCN1CCOCC1 (centres unmarked) [Compound 28, 3,4-dichloro-5-hydroxy-1-(2-morpholinoethyl)-1H-pyrrol-2(5H)-one]
Normalized PFC (Peak Fold Change in Viral Expression Unit normalized to VSe1) (listed as compound 28): promising activity

CC(C)CNC1=C(Cl)C(=O)OC1c1ccccc1 (centres unmarked) [Compound 4]
Normalized PFC (Peak Fold Change in Viral Expression Unit normalized to VSe1) (listed as compound 4): loss of viral enhancement activity

O=C1C(Cl)=C(Cl)C(O)N1C1CC1 (centres unmarked) [Compound 25, 3,4-dichloro-1-cyclopropyl-5-hydroxy-1H-pyrrol-2(5H)-one]
Normalized PFC (Peak Fold Change in Viral Expression Unit normalized to VSe1) (listed as compound 25): retained activity

COC1OC(=O)C(Cl)=C1Cl (centres unmarked) [Compound 6]
Normalized PFC (Peak Fold Change in Viral Expression Unit normalized to VSe1) (listed as compound 6): active

O=C1C(Cl)=C(Cl)C(O)N1Cc1ccccc1 (stereo not drawn) [Compound 10, α,β-dichloro-γ-hydroxy-N-benzyl-crotonic lactam]
Normalized PFC (Peak Fold Change in Viral Expression Unit normalized to VSe1) (listed as compound 10): enhanced viral expression

Reference: patent publication US20180305345A1 (priority 2015, published 2018)
